The values that follow come from US20120046329A1, “MODULATORS OF NOD1 AND NOD2 SIGNALING, METHODS OF IDENTIFYING MODULATORS OF NOD1 AND NOD2 SIGNALING, AND USES THEREOF” (Sanford-Burnham Medical Research Institute, priority 2010, published 2012).

The target in the assay is T1, NOD1 (Homo sapiens, UniProt Q9Y239).
T1 sequence (Q9Y239 1-953): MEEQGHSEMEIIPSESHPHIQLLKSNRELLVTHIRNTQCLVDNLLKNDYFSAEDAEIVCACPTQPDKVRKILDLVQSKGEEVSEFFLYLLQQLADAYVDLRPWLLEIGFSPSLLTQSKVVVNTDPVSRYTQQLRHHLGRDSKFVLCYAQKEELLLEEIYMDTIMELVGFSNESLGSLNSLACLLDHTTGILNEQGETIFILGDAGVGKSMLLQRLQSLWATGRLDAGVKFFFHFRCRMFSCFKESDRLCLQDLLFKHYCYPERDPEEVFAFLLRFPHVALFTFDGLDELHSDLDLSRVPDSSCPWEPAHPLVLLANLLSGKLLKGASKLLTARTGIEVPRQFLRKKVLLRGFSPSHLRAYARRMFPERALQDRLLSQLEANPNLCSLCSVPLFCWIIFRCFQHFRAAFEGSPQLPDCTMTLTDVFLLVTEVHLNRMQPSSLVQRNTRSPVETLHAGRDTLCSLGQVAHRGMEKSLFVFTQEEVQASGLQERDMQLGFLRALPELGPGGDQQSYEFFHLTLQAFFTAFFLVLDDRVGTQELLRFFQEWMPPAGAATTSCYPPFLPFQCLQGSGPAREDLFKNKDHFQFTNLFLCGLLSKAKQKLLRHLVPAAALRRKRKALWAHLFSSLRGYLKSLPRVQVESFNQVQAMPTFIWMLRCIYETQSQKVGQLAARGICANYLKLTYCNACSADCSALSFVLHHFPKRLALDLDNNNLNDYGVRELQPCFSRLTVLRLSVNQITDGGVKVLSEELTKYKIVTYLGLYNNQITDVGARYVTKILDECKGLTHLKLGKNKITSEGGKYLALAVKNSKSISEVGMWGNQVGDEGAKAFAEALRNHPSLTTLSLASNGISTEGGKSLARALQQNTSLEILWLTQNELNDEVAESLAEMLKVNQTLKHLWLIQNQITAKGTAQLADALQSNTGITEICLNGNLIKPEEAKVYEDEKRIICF
Briefly: NOD1 NF-κB luciferase reporter assay, γ-tri-DAP-stimulated HEK293T cells. As to conditions: read-out: (NOD1) IC50. In general terms: In a reporter assay the amount or activity of a reporter protein is the signal.

Broadly, the IC50 is the concentration that gives 50% inhibition. As for `Cc1ccc(S(=O)(=O)n2c(N)nc3ccccc32)cc1` [Compound 1], the IC50 was determined as 560 ± 40 nM.
